Test results taken from patent US12291537B2, “Compounds, compositions and methods” (priority 2022, dated 2025).

Experiments:
MDA-MB-468 cells = experiment: Cell based binding of HER2 ADCs by flow cytometry; design: species or system human
NCI-N87 cells [1] = experiment: Cell based binding of HER2 ADCs by flow cytometry; design: species or system human
BT-474 cells [2] = experiment: Cell based binding of HER2 ADCs by flow cytometry; design: species or system human
JIMT-1 cells = experiment: Cell based binding of HER2 ADCs by flow cytometry; design: species or system human
SK-BR-3 cells = experiment: Cell based binding of HER2 ADCs by flow cytometry; design: species or system human
BT-474 cells [3] = experiment: Cytotoxicity of HER2 ADCs (CellTiter-Glo Luminescent Cell Viability Assay); type: cell-based, human
MDA-MB-231 cells = experiment: Cell based binding of HER2 ADCs by flow cytometry; design: species or system human; conditions: Example 3
Procedure: Briefly, The NCI-N87, SK-BR-3, BT-474, JIMT-1, MDA-MB-231 and MDA-MB-468 cells were incubated with titrated antibody drug conjugates (from 100 nM, 5 folds dilution, 8 points) at 4° C. for 60 minutes. Then cells were washed with FACS buffer twice and stained with fluorescent conjugated secondary antibody (Alexa Fluor® 647 Goat Anti-Human IgG, Jackson, 109-605-098) at 4° C. for 60 minutes. After that the cells were washed twice and analyzed by flow cytometry.

NCI-N87 cells [4] = experiment: Cytotoxicity of HER2 ADCs (CellTiter-Glo Luminescent Cell Viability Assay); type: cell-based, human

Trastuzumab-DXd
Max (MDA-MB-468 cells; Example 2): 115 MFI
Max (MDA-MB-468 cells; Example 3): 146 MFI
Max (NCI-N87 cells [1]; Example 2): 276178 MFI
EC50 (NCI-N87 cells [1]; Example 2, 4° C., 60 minutes): 2.96 nM
Max (NCI-N87 cells [1]; Example 3): 215714 MFI
EC50 (NCI-N87 cells [1]; Example 3 (DAR comparison)): 3.42 nM
EC50 (BT-474 cells [2]; Example 2): 4.89 nM
Max (BT-474 cells [2]; Example 2): 161192 MFI
EC50 (BT-474 cells [2]; Example 3): 2.81 nM
Max (BT-474 cells [2]; Example 3): 174842 MFI
EC50 (JIMT-1 cells; Example 2): 1.62 nM
Max (JIMT-1 cells; Example 2): 31787 MFI
EC50 (JIMT-1 cells; Example 3): 1.35 nM
Max (JIMT-1 cells; Example 3): 31720 MFI
EC50 (SK-BR-3 cells; Example 2): 3.02 nM
Max (SK-BR-3 cells; Example 2): 220188 MFI
EC50 (SK-BR-3 cells; Example 3): 4.62 nM
Max (SK-BR-3 cells; Example 3): 185879 MFI
IC50 (BT-474 cells [3]; Example 4, 6 days): 0.059 nM
IC50 (BT-474 cells [3]; Example 5, 6 days): 0.06 nM
EC50 (MDA-MB-231 cells): 1.57 nM
Max (MDA-MB-231 cells): 2913 MFI
IC50 (NCI-N87 cells [4]; Example 4, 6 days): 0.246 nM
IC50 (NCI-N87 cells [4]; Example 5 (DAR comparison), 6 days): 0.285 nM
